In test [1] the target is T1, Kappa-type opioid receptor (Homo sapiens, UniProt P41145). In words: Agonist activity at human KOPR expressed in CHO cells assessed as [35S]GTPgammaS binding after 60 mins by liquid scintillation counting. On the technique in general: GTPγS is a poorly hydrolysed GTP analogue; its binding reports G protein activation.
In test [2] the target is T1, Kappa-type opioid receptor. In words: Agonist activity at human KOPR expressed in U2OS cells assessed as beta-arrestin2 recruitment after 90 mins by DiscoveRx PathHunter assay. Background: Arrestin recruitment assays detect the binding of arrestin to an activated receptor.
For test [3], the target named is T1, Kappa-type opioid receptor. In words: Displacement of [3H]diprenorphine from human KOPR expressed in CHO cells. (In general: Displacement assays read how much labelled ligand stays bound in the presence of the test substance.)
Test [4] has as its target Mu-type opioid receptor (Rattus norvegicus, UniProt P33535). In words: Displacement of [3H]diprenorphine from rat MOPR expressed in CHO cells.

Protein sequences, listed by entry. Tags and fused reporters are not part of them. Lines headed by an entry give the natural chain unless they say otherwise; changes in a name come on top.
UniProt P41145: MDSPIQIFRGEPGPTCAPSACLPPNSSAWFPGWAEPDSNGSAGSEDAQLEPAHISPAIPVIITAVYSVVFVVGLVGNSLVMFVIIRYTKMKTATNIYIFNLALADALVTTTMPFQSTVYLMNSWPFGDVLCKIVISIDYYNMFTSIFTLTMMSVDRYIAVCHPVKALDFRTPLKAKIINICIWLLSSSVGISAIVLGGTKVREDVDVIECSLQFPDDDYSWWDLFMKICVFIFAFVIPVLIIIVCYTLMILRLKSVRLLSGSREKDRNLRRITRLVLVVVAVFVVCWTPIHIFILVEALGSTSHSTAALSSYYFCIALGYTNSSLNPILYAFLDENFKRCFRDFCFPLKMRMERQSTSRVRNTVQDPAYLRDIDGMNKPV
UniProt P33535, whole entry, looked up: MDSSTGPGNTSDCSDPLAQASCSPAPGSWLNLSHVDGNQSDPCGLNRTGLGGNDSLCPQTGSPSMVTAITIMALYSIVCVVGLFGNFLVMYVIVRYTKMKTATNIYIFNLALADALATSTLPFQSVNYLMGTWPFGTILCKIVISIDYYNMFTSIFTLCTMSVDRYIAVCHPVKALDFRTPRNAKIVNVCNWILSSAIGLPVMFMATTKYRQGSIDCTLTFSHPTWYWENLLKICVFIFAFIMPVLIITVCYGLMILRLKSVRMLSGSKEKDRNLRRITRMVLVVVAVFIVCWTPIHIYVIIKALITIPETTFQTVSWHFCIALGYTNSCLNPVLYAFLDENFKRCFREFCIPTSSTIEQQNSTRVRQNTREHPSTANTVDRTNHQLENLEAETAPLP

SMILES strings stand for the structures.

For orientation: EC50 means the concentration at which the effect is half-maximal. The term Ki denotes a measure of affinity in units of concentration, obtained from inhibition or displacement.

On to `CCOCO[C@H]1C[C@@H](C(=O)OC)[C@]2(C)CC[C@H]3C(=O)O[C@@H](c4ccoc4)C[C@]3(C)[C@H]2C1=O`, for which the EC50 in test [1] was found to be 9.5 nM; in test [2], 123 nM. In addition, affinity in test [3] was put at a Ki of 2.5 nM.
For the compound `COC(=O)[C@@H]1C[C@H](OC(C)=O)C(=O)[C@H]2[C@@]1(C)CC[C@H]1C(=O)O[C@@H](c3cc(Br)oc3Br)C[C@]21C`, the results for the inhibitory constant (Ki) in test [4] and in test [3] were 318 nM and 40 nM, respectively.
For the compound `COCO[C@H]1C[C@@H](C(=O)OC)[C@]2(C)CC[C@H]3C(=O)O[C@@H](c4ccoc4)C[C@]3(C)[C@H]2C1=O`, the Ki in test [3] amounted to 4.4 nM.

These data come from ChEMBL document CHEMBL1938260, “Differential signaling properties at the kappa opioid receptor of 12-epi-salvinorin A and its analogues” (2012).
